{"source": "paper PMC3103436", "about": "(Journal of Translational Medicine, 2011)", "system": "HLMs", "assay": "Chemical inhibition assays of BBR metabolism in HLMs", "type": "in vitro ADME, human", "conditions": "BBR 15 μM, inhibitor 5 μM, 30 min, control without inhibitor = 100%", "description": "Incubation conditions were optimized to ensure the linearity with respect to the microsomal protein concentration and incubation time. […] After incubation of the mixture in a 37°C water bath with opening to the air, the reaction lasted for 30 min and was terminated by addition of 800 μl cold acetonitrile. Internal standard (40 μg/ml ampicillin, dissolved in acetonitrile) was added into the mixture, and then centrifuged at 16000 g for 15 min at 4°C. The supernatant was aspirated, followed by dilution in 0.2% acetic acid. 10 μl of the aliquot was injected into the LC-MS/MS system for analysis. Control samples were incubated without NADPH. The incubation was performed in duplicates.\nα-Naphthoflavone (typical inhibitor of CYP1A2; final concentration used, 5 μM), quinidine (typical inhibitor of CYP2D6; final concentration, 5 μM) sulfaphenazole (typical inhibitor of CYP2C9; final concentration, 5 μM), troglitazone (typical inhibitor of CYP2C19; final concentration, 5 μM) and ketoconazole (typical inhibitor of CYP3A; final concentration, 5 μM) were added, respectively, to the incubation reaction containing 0.5 mg/ml HLMs, 100 mM phosphate buffer (pH 7.4) and NADPH-regenerating system at a final volume of 200 μl. […] The mixture was incubated at 37°C for 30 min and then terminated with cold acetonitrile. […]\nThe flow-rate was 0.2 ml/min. […] Data were analyzed by Xcalibur 1.2 software."}
{"smiles": "C=C[C@H]1C[N@@]2CC[C@H]1C[C@@H]2[C@@H](O)c1ccnc2ccc(OC)cc12", "note": "[QND, quinidine]", "values": [{"measurement": "Decrease of M2 formation", "value": "about 40%"}]}
